# Nrf2 inh – blocks Nrf2 signaling | A549 ARE-Fluc reporter, luciferase luminescence, 18-24 h | Potency, µM (titrated, usually from 46 µM), for inactives: top-dose activity change, negative = inhibition, usual class: inhibitors | 360,000 tested, 2.1% active; note: potency is the fitted concentration of half-maximal effect; % is set by controls: 0 for no effect and ±100 for the full control effect; nearly all actives have a fitted effect of over 60% in size
#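 Two sequential reads on A549 ARE_Fluc cells exposed to compound for 18-24 h: a CellTiter-Fluor fluorescence read for viability, then a luciferase luminescence read for Nrf2/ARE activity.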
# Nrf2 activator – activates Nrf2 signaling; AREc32 ARE-luciferase reporter (MCF7-derived line), luminescence, 24 h; Potency, µM (titrated, usually from 46.1 µM), inactives show at the top dose activation, most hits filed as activators; 410,000 tested, 0.31% active; note: potency is the fitted concentration of half-maximal effect; % of control where 0% means no effect; nearly all actives have a fitted effect of over 65% in size
#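 Reporter line AREc32 (ARE-Fluc), seeded overnight in OPTI-MEM with 5% FBS; compound pin-transferred, 24 hr at 37 deg C, 5% CO2; luminescent read-out.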
# miR-21 FLuc – miR-21 reporter, rising signal; Potency, µM (titrated, usually from 38.3 µM), without a hit: at the highest dose reporter change, positive = more light; AID 2288; 340,000 tested, under 10 active; HeLa miR-21 FLuc reporter, luciferase, 48 h; active = well fitted rising curve with a large enough effect; inconclusive = small, poorly fitted or top-dose-only effect; inactive = no such curve, though single readings can be large or run the other way;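 note: % of control where 0% means no effect; miR-21 action dims this reporter so a rising signal means less miR-21 action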
#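 Luminescence from a firefly luciferase reporter carrying a miR-21 binding site downstream, stably expressed under a CMV promoter in HeLa cells that make miR-21 endogenously, reports miRNA modulation after 48 h compound exposure up to approximately 40uM final.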
# A549 viability – counter-screen for Nrf2 inhibitors: cytotoxicity in A549 cells; A549 ARE-Fluc cells, CellTiter-Fluor viability, 18-24 h; Potency, µM (highest dose often 46 µM), for the others: at the highest dose activity change, negative = cytotoxicity, most hits filed as inhibitors; 390,000 tested, 0.16% active; note: potency is the fitted concentration of half-maximal effect; % is set by controls: 0 for no effect and ±100 for the full control effect
#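 Cytotoxicity counterscreen: CellTiter-Fluor fluorescence was measured in A549 ARE_Fluc cells after 18-24 h of compound exposure in a concentration series. The subsequent BugLite luminescent read reports ARE-luciferase activity.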
# B2AR arrestin – beta2AR (human) beta-arrestin recruitment activity. P07550. beta-arrestin recruitment to beta2AR, cell-based reporter. Potency, µM (top dose mostly 46.1 µM), without a hit: at the top dose activation, most hits filed as activators. 330,000 tested, 0.02% active. AID 492947;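 note: potency is the fitted concentration of half-maximal effect; 0% = DMSO controls and full agonism = EC100 isoproterenol or metaproterenol; nearly all actives have a fitted effect of over 65% in size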
# * hit, by the source's call; ? = inconclusive; . = no result; [ ] = dose if it differs, or a comment. Sampled rows, rich in hits. Any-hit rate of the full collection: about 2.2%. Unless noted, calls come from the whole dose curve; as a rule, active = well fitted curve in the direction sought with a large enough effect; inconclusive = small, poorly fitted or top-dose-only effect, or another doubt; inactive = no such curve, though single readings can be large; an effect the other way counts as inactive or inconclusive.
nr	mol	Nrf2 inh	Nrf2 activator	miR-21 FLuc
1	CCc1cccc(NC(=O)C(Cc2ccccc2)NS(=O)(=O)c2ccc3c(c2)c(=O)n(C)c(=O)n3C)c1 (stereo unspecified)	-8%	-1%	?
2	Cc1ccc(-n2c(O)c(/C=N/Nc3ccc(S(=O)(=O)N4CCOCC4)cc3[N+](=O)[O-])c3ccccc3c2=O)c(C)c1	18µM*	14%	?
3	O=C(O)c1ccc(/C=N\Nc2ccc(S(=O)(=O)N3CCOCC3)cc2[N+](=O)[O-])cc1	3%	0%	-1%
4	COc1cc(CN(C(=O)c2ccc(C)cc2)c2ccccn2)cc(OC)c1OC	-29%	1%	8%
5	O=C1c2ccccc2C(=O)c2c(NCCCN(CCO)CCO)cccc21	?	3%	19%
6	O=C1c2c(O)ccc(O)c2C(=O)c2c(NCCNCCO)ccc(NCCNCCO)c21	?	-2%	.
7	Cc1cc(C)cc(NC(=O)CSc2nc3c([nH]c4ccccc43)c(=O)n2-c2ccc(F)cc2)c1	.	-1%	-9%
8	COc1ccc(NC(=O)c2cccc(N3C(=O)C4C5C=CC(C5)C4C3=O)c2)cc1 (stereo unspecified)	-21%	-1%	-2%
9	COc1cccc(NC(=O)c2cccc(N3C(=O)C4C5C=CC(C5)C4C3=O)c2)c1 (stereo unspecified)	18µM*	0%	2%
10	COC(=O)c1c(-c2ccc(F)cc2)csc1NC(=O)C1CCCO1 (stereo unspecified)	18µM*	3%	-59%

nr	A549 viability	B2AR arrestin
1	-17%	.
2	?	-3%
3	-12%	0%
4	0%	.
5	?	0%
6	13µM*	0%
7	1%	.
8	-4%	3%
9	?	0%
10	-4%	1%

nr	mol	Nrf2 inh	Nrf2 activator	miR-21 FLuc
11	CCc1ccc(-c2csc(NC(=O)C3CCCO3)c2C(=O)OC(C)C)cc1 (stereo unspecified)	?	-1%	4%
12	Cc1noc(C)c1COC(=O)c1ccccc1Sc1ccccc1C#N	18µM*	0%	0%
13	CCOC(=O)c1c(C)oc2nc(C)nc(N3CCN(c4cccc(C(F)(F)F)c4)CC3)c12	?	4%	28%
14	CCOC(=O)c1c(C)oc2nc(C)nc(N3CCN(c4ccccc4)CC3)c12	23µM*	-1%	?
15	CCOC(=O)c1c(C)oc2nc(C)nc(N(C)Cc3ccccc3)c12	13µM*	8%	0%
16	COc1ccc(C2=Nn3c(nnc3-c3cc(OC)ccc3OC)SC2)c(OC)c1	?	.	.
17	Cc1cc(C)n(-c2nc3cc(Cl)ccc3nc2N2CCN(c3ccccc3F)CC2)n1	6%	0%	5%
18	CN(C)S(=O)(=O)c1cccc(CSCc2cccc(S(=O)(=O)N(C)C)c2)c1	6.5µM*	0%	13%
19	Cc1nc(-c2ccc(S(=O)(=O)N3CCN(Cc4ccccc4)CC3)s2)cs1	16µM*	0%	6%
20	CC(C(=O)c1ccc(-c2ccccc2)cc1)[n+]1ccccc1 (stereo unspecified)	7.3µM*	2%	21%

nr	A549 viability	B2AR arrestin
11	-17%	1%
12	-11%	-1%
13	-2%	.
14	-5%	.
15	7%	.
16	2%	.
17	-5%	.
18	6%	0%
19	3%	-1%
20	?	0%

nr	mol	Nrf2 inh	Nrf2 activator	miR-21 FLuc
21	Cc1ccc[n+](C(C)C(=O)c2ccc(-c3ccccc3)cc2)c1 (stereo unspecified)	-20%	0%	28%
22	O=C(NC1CCCCCC1)C1CCN(C(=O)N2CCOc3ccccc32)CC1	12%	4%	0%
23	O=C(Nc1ccc(C(=O)N2CCOCC2)cc1)c1cccc(Br)c1	-8%	4%	-25%
24	O=C(Nc1cccc(Br)c1)c1cccc(OC(=S)N2CCOCC2)c1	16µM*	9%	12%
25	COc1cccc(-c2cc(C(=O)Nc3ccc(F)cc3)[nH]n2)c1	2.6µM*	7%	-48%
26	O=C1c2ccccc2C(=O)c2c1cccc2-n1nnc2ccccc21	-5%	0%	-1%
27	O=C1C(N2CCOCC2)=C(n2nnc3ccccc32)C(=O)c2ccccc21	23µM*	-2%	?
28	COc1c(C)oc2cc(O)ccc2c1=O	-10%	0%	-5%
29	Oc1ccc2c(c1)oc1cc(O)ccc12	?	13µM*	-31%

nr	A549 viability	B2AR arrestin
21	0%	0%
22	5%	.
23	-17%	-1%
24	-2%	-1%
25	6%	.
26	2%	1%
27	23µM*	-2%
28	10%	-1%
29	-6%[1.84 µM]	0%

# Arranged by heavy-atom count (smallest number first): some entries from above
nr	mol	Nrf2 inh	Nrf2 activator	miR-21 FLuc
28	COc1c(C)oc2cc(O)ccc2c1=O	-10%	0%	-5%
10	COC(=O)c1c(-c2ccc(F)cc2)csc1NC(=O)C1CCCO1 (stereo unspecified)	18µM*	3%	-59%
13	CCOC(=O)c1c(C)oc2nc(C)nc(N3CCN(c4cccc(C(F)(F)F)c4)CC3)c12	?	4%	28%

nr	A549 viability	B2AR arrestin
28	10%	-1%
10	-4%	1%
13	-2%	.

# Source: PubChem (National Center for Advancing Translational Sciences (NCATS))
